This is an account of results in PubChem BioAssay AID493036 (Sanford-Burnham Center for Chemical Genomics, 2011).

Protein sequences, listed by entry. Tags and fused reporters are not part of them.
UniProt P30989, whole entry: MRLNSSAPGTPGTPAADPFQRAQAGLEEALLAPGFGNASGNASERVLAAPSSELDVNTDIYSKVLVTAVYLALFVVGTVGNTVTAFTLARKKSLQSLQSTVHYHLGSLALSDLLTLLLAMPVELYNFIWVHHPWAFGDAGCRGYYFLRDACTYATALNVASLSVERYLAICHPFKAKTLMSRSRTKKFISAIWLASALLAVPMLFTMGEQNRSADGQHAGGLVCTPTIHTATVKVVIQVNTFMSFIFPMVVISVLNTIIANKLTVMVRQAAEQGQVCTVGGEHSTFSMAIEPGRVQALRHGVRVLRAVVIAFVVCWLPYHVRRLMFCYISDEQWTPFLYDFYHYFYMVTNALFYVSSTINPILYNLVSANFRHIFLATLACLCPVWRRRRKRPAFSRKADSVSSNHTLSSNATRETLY

The structures appear in SMILES notation. Only a part is listed here, and it is no random draw. Some tests of the compounds listed are not included; inactive here does not mean inactive elsewhere. Activity calls are given as the source filed them.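 How the source made its calls: active means activation at or above 40% of the spot to cytoplasm intensity ratio, with at least 20 cells analyzed; inconclusive means wells under 20 cells, flagged as cytotoxic or low count; inactive means the rest.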

For this assay, the target named is Neurotensin receptor type 1 (Homo sapiens) (UniProt P30989). The experiment in a line: NTR1-driven beta-arrestin-GFP spot formation – imaging, U2OS cells, high content, primary screen (AID 493036) (AID 493036).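 Further: 0% = DMSO without peptide and 100% = 100 nM NTR1 peptide.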 The note with it: agonist mode, at 20 µM, active compounds read high.
With `O=C(OC1CN2CCC1CC2)C(CO)(c1ccccc1)c1ccccc1` (centres undefined), the activation is inactive: -0.3%.

For the molecule `COc1ccc(Br)c(C(=O)NCC2(N3CCCCC3)CCCCC2)c1`, the activation was inactive: 0.2%.

As to `CN(C)c1cccc(C(=O)NCC2(N(C)C)CCCCC2)c1`, the activation was inactive: -0.1%.

Turning to `CC(C)Oc1ccc(C(=O)NCC2(N(C)C)CCCCC2)cc1`, the activation was inactive: -2.1%.

Consider `CN(C)C1(CNC(=O)c2ccc(Br)cc2)CCCCC1`, for which the activation was inactive: -1%.

As to `COc1cc(C(=O)NCC2(N(C)C)CCCCC2)c([N+](=O)[O-])cc1OC`, the activation was inactive: 0.9%.

As to `COc1ccc(Cl)cc1C(=O)NCC1(N(C)C)CCCCC1`, the activation was inactive: -0.4%.

Take `COc1cccc(C(=O)NCC2(N3CCCCC3)CCCCC2)c1`: the activation is inactive: -1.1%.

Consider `O=C(NCC1(N2CCCCC2)CCCCC1)c1cccc(Cl)c1`, for which the activation is inactive: -0.2%.

As to `CN(C)c1ccc(C(=O)NCC2(N(C)C)CCCCC2)cc1`, the activation was inactive: 0.7%.

`CN(C)C1CCCC1OC(=O)C(O)(c1ccccc1)c1ccccc1` (centres undefined): the activation is inactive: -0.7%.

`Cc1ccccc1C(=O)NCC1(N2CCCCC2)CCCCC1`: the activation was inactive: -1.3%.

Consider `O=C(NCC1(N2CCCCC2)CCCCC1)c1cc(F)c(F)cc1Cl`, for which the activation was inactive: 0.5%.

With `C=CCN1CCN(CCOC(=O)C(O)(c2ccccc2)c2ccccc2)CC1`, the activation was inactive: 1%.

On to `O=C(NCC1(N2CCCCC2)CCCCC1)c1cccc(Br)c1`, for which the activation was inactive: 1.8%.

Turning to `CCN1CCCC(OC(=O)C2(O)c3ccccc3C=Cc3ccccc32)C1` (centres undefined), the activation was inactive: -0.2%.

In the case of `Cc1cc(C(=O)NCC2(N3CCCCC3)CCCCC2)ccc1[N+](=O)[O-]`, the activation was inactive: 0.1%.

With `COc1ccc(C(=O)NCC2(N(C)C)CCCCC2)cc1`, the activation was inactive: 1.5%.

`O=C(NCC1(N2CCCCC2)CCCCC1)c1cc([N+](=O)[O-])ccc1Cl`: the activation was inactive: -1.5%.

Regarding `CN1[C@@H]2CC[C@H]1CC(OC(=O)C(O)(c1ccccc1)c1ccccc1)C2` (some centres undefined), the activation was inactive: 0.1%.

In the case of `CC(C)N1C(=O)CC2(CCN(CCOC(=O)C(O)(c3ccccc3)c3ccccc3)CC2)C1=O`, the activation was inactive: 1.9%.

`COc1cc(SC)ccc1C(=O)NCC1(N(C)C)CCCCC1`: the activation is inactive: -0.6%.

Turning to `CCN(CC)CC(C)C(C)OC(=O)C(O)(c1ccccc1)c1ccccc1` (centres undefined), the activation is inactive: 0.4%.

As for `Cc1ccc(C(=O)NCC2(N3CCCCC3)CCCCC2)cc1`, the activation is inactive: -0.3%.
